Laboratory results: paper PMC4136963, “Structure-Based Design and Synthesis of Antiparasitic Pyrrolopyrimidines Targeting Pteridine Reductase 1” (Journal of Medicinal Chemistry, 2014)

Conditions: mice

## Nc1nc(N)c2c(-c3ccccc3)c(-c3ccc(F)cc3)[nH]c2n1 [35b, 6-(4-Fluorophenyl)-5-phenyl-7H-pyrrolo[2,3-d]pyrimidine-2,4-diamine]
10 mg/kg
  MTD study outcome at 10 mg/kg: no clinical signs
30 mg/kg
  MTD study outcome at 30 mg/kg: some transient clinical signs
100 mg/kg
  MTD study outcome at 100 mg/kg: severe toxicity and fatality
